Experimental findings from patent US5278146A, “CRF analogs” (The Salk Institute for Biological Studies, priority 1992, dated 1994) are described below.

Assay [1] in a line: In vivo testing (procedure of C. Rivier et al., Science 218, 377): duration of potency and blood pressure. The conditions noted are these: administered peripherally (where stated).
Assay [2] relates to cultured rat pituitary cells. The assay is described as follows: Secretion of ACTH and β-endorphin by cultured rat pituitary cells. In kind it is cell-based. The conditions noted are these: general procedure of Example III. The procedure:
The synthetic peptide [D-Glu^20 ]-oCRF is examined for its effects on the secretion of ACTH and β-endorphin vitro and was also in vivo. The potency of synthetic [D-Glu^20 ]-oCRF to stimulate the secretion of ACTH and β-endorphin by cultured rat pituitary cells is measured using the procedure as generally set forth in Endocrinology, 91, 562 (1972) and compared against synthetic oCRF.

In the case of `CCCC[C@H](NC(=O)[C@H](CC(C)C)NC(=O)[C@H](CCCCN)NC(=O)[C@H](CCCNC(=N)N)NC(=O)[C@H](CC(N)=O)NC(=O)[C@H](CO)NC(=O)[C@H](Cc1c[nH]cn1)NC(=O)[C@H](C)NC(=O)[C@H](CCC(N)=O)NC(=O)[C@H](CCC(N)=O)NC(=O)[C@H](C)NC(=O)[C@H](CC(C)C)NC(=O)[C@H](CCC(N)=O)NC(=O)[C@H](CC(=O)O)NC(=O)[C@H](C)NC(=O)[C@H](CCCCN)NC(=O)[C@@H](NC(=O)[C@H](CCCC)NC(=O)[C@H](CCC(=O)O)NC(=O)[C@H](CC(C)C)NC(=O)[C@@H](NC(=O)[C@H](CCC(=O)O)NC(=O)[C@H](CCCNC(=N)N)NC(=O)[C@H](CC(C)C)NC(=O)[C@H](CC(C)C)NC(=O)[C@H](Cc1c[nH]cn1)NC(=O)[C@@H](Cc1ccccc1)NC(=O)[C@@H](NC(=O)[C@H](CC(C)C)NC(=O)[C@H](CC(=O)O)NC(=O)[C@H](CC(C)C)NC(=O)[C@H](CO)NC(=O)[C@@H](NC(=O)[C@@H]1CCCN1C(=O)[C@@H]1CCCN1C(=O)[C@H](CCC(=O)O)NC(=O)[C@H](CCC(N)=O)NC(=O)[C@@H](N)CO)[C@@H](C)CC)[C@@H](C)O)C(C)C)[C@@H](C)O)C(=O)N[C@@H](CC(=O)O)C(=O)N[C@H](C(=O)N[C@@H](C)C(N)=O)[C@@H](C)CC` [[D-Phe^12, Nle^21,38]-oCRF], in assay [1], the “Lowering of blood pressure” value is recorded as “very significant lowering of blood pressure”.
The same measure, in the same setting: for `CCCC[C@H](NC(=O)[C@H](CCC(=O)O)NC(=O)[C@H](CC(C)C)NC(=O)[C@@H](NC(=O)[C@H](CCC(=O)O)NC(=O)[C@H](CCCNC(=N)N)NC(=O)[C@H](CC(C)C)NC(=O)[C@H](CC(C)C)NC(=O)[C@H](Cc1c[nH]cn1)NC(=O)[C@@H](Cc1ccccc1)NC(=O)[C@@H](NC(=O)[C@H](CC(C)C)NC(=O)[C@H](CC(=O)O)NC(=O)[C@H](CC(C)C)NC(=O)[C@H](CO)NC(=O)[C@@H](NC(=O)[C@@H]1CCCN1C(=O)[C@@H]1CCCN1C(=O)[C@H](CCC(=O)O)NC(=O)[C@H](CCC(N)=O)NC(=O)[C@@H](N)CO)[C@@H](C)CC)[C@@H](C)O)C(C)C)C(=O)N[C@H](C(=O)N[C@@H](CCCCN)C(=O)N[C@@H](C)C(=O)N[C@@H](CC(=O)O)C(=O)N[C@@H](CCC(N)=O)C(=O)N[C@@H](CC(C)C)C(=O)N[C@@H](C)C(=O)N[C@@H](CCC(N)=O)C(=O)N[C@@H](CCC(N)=O)C(=O)N[C@@H](C)C(=O)N[C@@H](Cc1c[nH]cn1)C(=O)N[C@@H](CO)C(=O)N[C@@H](CC(N)=O)C(=O)N[C@@H](CCCNC(=N)N)C(=O)N[C@@H](CCCCN)C(=O)N[C@@H](CC(C)C)C(=O)N[C@@H](CC(C)C)C(=O)N[C@@H](CC(=O)O)C(=O)N[C@H](C(=O)N[C@@H](C)C(N)=O)[C@@H](C)CC)[C@@H](C)O` [[D-Phe^12, Nle^21]-oCRF] the value was “very significant lowering of blood pressure”.
Turning to `CCCC[C@H](NC(=O)[C@H](CCC(=O)O)NC(=O)[C@H](CC(C)C)NC(=O)[C@@H](NC(=O)[C@H](CCC(=O)O)NC(=O)[C@H](CCCNC(=N)N)NC(=O)[C@H](CC(C)C)NC(=O)[C@H](CC(C)C)NC(=O)[C@H](Cc1c[nH]cn1)NC(=O)[C@@H](Cc1ccccc1)NC(=O)[C@@H](NC(=O)[C@H](CC(C)C)NC(=O)[C@H](CC(=O)O)NC(=O)[C@H](CC(C)C)NC(=O)[C@H](CO)NC(=O)[C@@H](NC(=O)[C@@H]1CCCN1C(=O)[C@@H]1CCCN1C(=O)[C@H](CCC(=O)O)NC(=O)[C@H](CCC(N)=O)NC(=O)[C@@H](N)CO)[C@@H](C)CC)[C@@H](C)O)C(C)C)C(=O)N[C@H](C(=O)N[C@@H](CCCCN)C(=O)N[C@@H](C)C(=O)N[C@@H](CC(=O)O)C(=O)N[C@@H](CCC(N)=O)C(=O)N[C@@H](CC(C)C)C(=O)N[C@@H](C)C(=O)N[C@@H](CCC(N)=O)C(=O)N[C@@H](CCC(N)=O)C(=O)N[C@@H](C)C(=O)N[C@@H](Cc1c[nH]cn1)C(=O)N[C@@H](CO)C(=O)N[C@@H](CC(N)=O)C(=O)N[C@@H](CCCNC(=N)N)C(=O)N[C@@H](CC(C)C)C(=O)N[C@@H](CC(C)C)C(=O)N[C@@H](CC(C)C)C(=O)N[C@@H](CC(=O)O)C(=O)N[C@H](C(=O)N[C@@H](C)C(N)=O)[C@@H](C)CC)[C@@H](C)O` [[D-phe^12, Nle^21, Leu^36]-oCRF], the “Stimulation of the secretion of ACTH and β-END-LI” value in assay [2] is “stimulates the secretion of ACTH and β-END-LI”. Also, the “Lowering of blood pressure” value in assay [1] is given as “very significant lowering of blood pressure”.
